Measurements published in patent publication US20020155995A1 (published 2002).
Values belong to the binder of their own block, whether it stands above or below them.

By UniProt entry, the sequences of proteins in these tests, tags left out. Residues count along the entry.
UniProt O60494, 36-3623 limits assumed: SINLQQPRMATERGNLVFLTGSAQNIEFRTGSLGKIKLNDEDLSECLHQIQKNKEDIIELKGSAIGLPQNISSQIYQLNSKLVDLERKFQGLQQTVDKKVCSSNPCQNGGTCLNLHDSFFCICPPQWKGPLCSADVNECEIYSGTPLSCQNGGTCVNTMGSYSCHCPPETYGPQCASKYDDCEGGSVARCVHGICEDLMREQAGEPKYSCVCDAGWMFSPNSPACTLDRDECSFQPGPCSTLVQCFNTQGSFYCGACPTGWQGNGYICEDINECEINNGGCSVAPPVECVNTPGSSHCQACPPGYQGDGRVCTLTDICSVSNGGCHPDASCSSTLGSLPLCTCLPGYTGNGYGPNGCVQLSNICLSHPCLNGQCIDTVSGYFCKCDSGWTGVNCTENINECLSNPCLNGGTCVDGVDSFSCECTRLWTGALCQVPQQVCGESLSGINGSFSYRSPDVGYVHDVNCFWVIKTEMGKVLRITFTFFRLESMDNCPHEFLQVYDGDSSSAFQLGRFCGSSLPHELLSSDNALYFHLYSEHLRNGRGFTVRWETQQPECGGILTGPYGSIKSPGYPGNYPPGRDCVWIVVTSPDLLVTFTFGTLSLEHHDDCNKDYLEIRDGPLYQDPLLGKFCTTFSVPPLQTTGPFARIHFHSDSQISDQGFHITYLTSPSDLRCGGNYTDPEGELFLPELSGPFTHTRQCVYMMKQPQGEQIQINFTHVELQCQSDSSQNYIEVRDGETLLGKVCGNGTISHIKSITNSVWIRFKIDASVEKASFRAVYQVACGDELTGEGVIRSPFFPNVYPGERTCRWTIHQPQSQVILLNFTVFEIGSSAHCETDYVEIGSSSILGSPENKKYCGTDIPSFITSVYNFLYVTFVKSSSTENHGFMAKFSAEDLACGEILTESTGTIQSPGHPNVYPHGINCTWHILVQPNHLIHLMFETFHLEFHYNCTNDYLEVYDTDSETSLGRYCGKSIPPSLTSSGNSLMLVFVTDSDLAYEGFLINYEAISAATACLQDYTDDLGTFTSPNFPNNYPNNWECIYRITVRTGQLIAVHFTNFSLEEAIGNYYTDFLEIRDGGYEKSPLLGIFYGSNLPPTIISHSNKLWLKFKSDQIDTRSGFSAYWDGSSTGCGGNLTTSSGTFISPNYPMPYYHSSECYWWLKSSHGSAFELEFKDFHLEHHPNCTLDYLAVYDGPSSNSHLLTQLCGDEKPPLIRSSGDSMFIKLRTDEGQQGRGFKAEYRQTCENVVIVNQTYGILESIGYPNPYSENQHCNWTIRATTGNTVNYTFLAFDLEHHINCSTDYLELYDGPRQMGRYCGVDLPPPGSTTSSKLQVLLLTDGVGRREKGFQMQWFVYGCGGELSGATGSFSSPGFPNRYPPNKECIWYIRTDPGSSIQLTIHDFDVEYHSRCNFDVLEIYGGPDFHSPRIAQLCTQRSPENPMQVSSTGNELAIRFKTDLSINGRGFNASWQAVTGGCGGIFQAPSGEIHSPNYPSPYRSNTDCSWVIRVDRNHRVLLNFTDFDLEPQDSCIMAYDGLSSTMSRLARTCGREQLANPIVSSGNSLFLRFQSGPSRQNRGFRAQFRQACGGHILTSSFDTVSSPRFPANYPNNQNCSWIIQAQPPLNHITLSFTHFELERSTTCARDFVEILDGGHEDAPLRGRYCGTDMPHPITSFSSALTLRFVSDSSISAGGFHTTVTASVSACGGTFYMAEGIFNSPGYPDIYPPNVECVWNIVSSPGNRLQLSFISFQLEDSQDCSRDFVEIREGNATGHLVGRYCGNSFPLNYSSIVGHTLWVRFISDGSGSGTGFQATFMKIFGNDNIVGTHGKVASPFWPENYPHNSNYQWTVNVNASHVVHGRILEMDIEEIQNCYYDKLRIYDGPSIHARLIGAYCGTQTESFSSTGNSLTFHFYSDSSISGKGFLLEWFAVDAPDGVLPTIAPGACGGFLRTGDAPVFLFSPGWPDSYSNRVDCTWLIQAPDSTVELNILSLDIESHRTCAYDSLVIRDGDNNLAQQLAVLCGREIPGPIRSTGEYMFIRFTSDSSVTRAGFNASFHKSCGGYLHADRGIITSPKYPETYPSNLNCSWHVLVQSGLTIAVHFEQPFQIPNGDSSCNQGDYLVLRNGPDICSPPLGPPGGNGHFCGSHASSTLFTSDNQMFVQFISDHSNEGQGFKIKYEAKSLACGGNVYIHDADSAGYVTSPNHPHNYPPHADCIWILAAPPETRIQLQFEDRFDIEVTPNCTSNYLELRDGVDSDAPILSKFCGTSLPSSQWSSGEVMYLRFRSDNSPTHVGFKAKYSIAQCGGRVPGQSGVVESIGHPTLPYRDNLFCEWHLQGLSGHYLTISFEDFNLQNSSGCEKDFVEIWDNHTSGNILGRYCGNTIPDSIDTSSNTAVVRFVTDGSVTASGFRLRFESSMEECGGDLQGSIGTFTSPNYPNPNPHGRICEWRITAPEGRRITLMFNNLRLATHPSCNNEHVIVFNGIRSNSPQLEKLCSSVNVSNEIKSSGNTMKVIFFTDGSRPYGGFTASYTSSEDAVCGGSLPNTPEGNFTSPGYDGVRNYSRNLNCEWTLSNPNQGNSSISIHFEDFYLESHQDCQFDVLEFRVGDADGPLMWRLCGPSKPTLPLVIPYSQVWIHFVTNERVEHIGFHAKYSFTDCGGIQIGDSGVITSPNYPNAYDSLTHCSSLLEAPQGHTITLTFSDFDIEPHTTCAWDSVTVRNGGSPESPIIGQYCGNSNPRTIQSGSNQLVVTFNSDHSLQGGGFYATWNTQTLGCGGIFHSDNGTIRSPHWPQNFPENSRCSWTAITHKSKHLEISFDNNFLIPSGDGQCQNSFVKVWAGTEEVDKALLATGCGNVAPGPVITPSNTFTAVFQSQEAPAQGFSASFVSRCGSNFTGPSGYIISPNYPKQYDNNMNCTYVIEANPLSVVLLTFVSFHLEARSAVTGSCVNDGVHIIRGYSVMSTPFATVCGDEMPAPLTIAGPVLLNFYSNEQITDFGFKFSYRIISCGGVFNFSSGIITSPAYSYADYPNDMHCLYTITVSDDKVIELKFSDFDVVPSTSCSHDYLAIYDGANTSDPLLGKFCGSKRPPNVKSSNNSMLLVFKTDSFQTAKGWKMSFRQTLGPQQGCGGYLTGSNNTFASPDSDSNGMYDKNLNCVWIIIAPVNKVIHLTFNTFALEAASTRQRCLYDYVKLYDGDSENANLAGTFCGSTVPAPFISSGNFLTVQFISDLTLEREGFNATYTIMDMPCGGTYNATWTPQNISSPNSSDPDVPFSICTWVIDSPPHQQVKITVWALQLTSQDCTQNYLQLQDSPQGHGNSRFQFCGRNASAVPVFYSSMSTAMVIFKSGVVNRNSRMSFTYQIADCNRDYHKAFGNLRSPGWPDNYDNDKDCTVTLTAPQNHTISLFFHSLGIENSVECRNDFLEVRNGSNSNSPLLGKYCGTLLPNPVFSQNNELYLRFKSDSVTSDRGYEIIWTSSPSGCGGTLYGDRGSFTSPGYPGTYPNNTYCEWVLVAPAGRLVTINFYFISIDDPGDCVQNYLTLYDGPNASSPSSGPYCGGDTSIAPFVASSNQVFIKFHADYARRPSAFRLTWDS

Assays:
[1] = target: Hp-Hb complexes (Hp of mixed phenotypes or phenotype not specified) (human, UniProt P00738 19-406); test: Hp-Hb affinity chromatography
[2] = target: T1, human receptor cubilin expressed on CHO cells (human, UniProt O60494 36-3623); test: uptake of Alexa Fluor 488 labelled Hp(2-2)-Hb by CHO cells, confocal microscopy
T1 construct: also called mock cells, expressing cubilin; control cells

[3] = target: T2, human CD163, ligand-affinity purified from Triton X-100 solubilised human spleen, placenta and liver membranes (human, UniProt Q86VB7 42-1156); test: apparent Kd from solid phase competition on CD163 in microtiter wells, on an assumed 2-2 multimer distribution
T2 construct: mature; Natural receptor purified from tissue membranes on Hp-Hb Sepharose; immobilised on BIAcore CM5 chips or in microtiter wells; also called HbSR; Hp-Hb receptor

[4] = target: T2, human CD163, ligand-affinity purified …; test: solid phase competition on CD163 in microtiter wells
[5] = target: T2, human CD163, ligand-affinity purified …; test: solid phase competition, 125I-Hp(2-2)-Hb on CD163 in microtiter wells

- binding result [1]: no binding
B1: recombinant HbSR fragment corresponding to SRCR domain 5-9 (receptor)
chain: not shown
notes: domain: SRCR domain 5-9; Expressed in CHO-K1 cells from pSecTag2B; also called HbSR SRCR 5-9; HbSR SRCR domain 5-9

- binding result [2]: no binding (tested: 0.1 µM)
- Kd [3]: ~0.2 nM
- fold higher functional affinity (avidity) against Hp(1-1)-Hb [4]: ~10 fold
- IC50 [5]: ~0.1 µg/mL
B2: Hp(2-2)-Hb complex (multimeric haptoglobin-haemoglobin complex, Hb form A0) (other)
chain 1: VDSGNDVTDIADDGCPKPPEIAHGYVEHSVRYQCKNYYKLRTEGDGVYTLNDKKQWINKAVGDKLPECEADDGCPKPPEIAHGYVEHSVRYQCKNYYKLRTEGDGVYTLNNEKQWINKAVGDKLPECEAVCGKPKNPANPVQRILGGHLDAKGSFPWQAKMVSHHNLTTGATLINEQWLLTTAKNLFLNHSENATAKDIAPTLTLYVGKKQLVEIEKVVLHPNYSQVDIGLIKLKQKVSVNERVMPICLPSKDYAEVGRVGYVSGWGRNANFKFTDHLKYVMLPVADQDQCIRHYEGSTVPEKKTPKSPVGVQPILNEHTFCAGMSKYQEDTCYGDAGSAFAVHDLEEDTWYATGILSFDKSCAVAEYGVYVKVTSIQDWVQKTIAEN
chain 2: not shown
chain 3: not shown
